The source of these data is PubChem BioAssay AID1010 (Sanford-Burnham Center for Chemical Genomics, 2008).

The entries are a selection whose mix differs from that of the whole data set. The source made the active and inactive calls.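 The calls were made as follows: active = survival measured by cellular ATP above 50% at 15 µg/ml in the first screen; inactive = the rest.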

The nature of the assay: protection against thapsigargin ER stress killing – CSM14.1 cells, ATP luminescence, primary screen (AID 1010).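 Also: cell death triggered by about 15 µM thapsigargin; ATP read 24 h after thapsigargin was added; plate controls were thapsigargin with DMSO for no effect and DMSO without thapsigargin for full effect.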 As to conditions: CSM14.1 thapsigargin ER stress survival, active compounds read high, screened at 15 µg/mL (by protocol).
`CP(=O)(Oc1ccc(F)cc1)Oc1ccc(F)cc1`: the relative survival (cellular ATP) is inactive: 2.2%.
The value for `CCc1ccc(OP(C)(=O)O)cc1` was inactive: -8.4%; that for `CN(C)CCOC(=O)C(O)(c1ccccc1)c1ccccc1` was inactive: 8.9%.
As to `CP(=O)(Oc1ccccc1F)Oc1ccccc1F`, the relative survival (cellular ATP) is inactive: 29.7%.
In the case of `CCOP(C)(=S)SCC(=O)NC(C)C(=O)O` (configuration not stated), the relative survival (cellular ATP) was inactive: 1.5%.
As for `CP(=O)(Oc1ccccc1)Oc1ccccc1`, the relative survival (cellular ATP) was inactive: 16.8%.
Under `CP(=O)(Oc1ccc(Cl)cc1)Oc1ccc(Cl)cc1` stands inactive: 9.4%.
